Test results taken from PubChem BioAssay (NCI).
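Growth conditions: 96-well plates. Treatment: test compound, 48 hours, 5 concentrations. Analysis: linear interpolation between bracketing concentrations; unreached endpoints set to highest concentration. GI50 is the concentration that inhibits growth by half. At the TGI there is no net growth.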

Columns and labels:
Test in all cases: NCI tumour cell line growth inhibition, 48 h
SW-620 colon = system: SW-620 colon
UO-31 renal = system: UO-31 renal
IGROV1 ovarian = system: IGROV1 ovarian
SK-OV-3 ovarian = system: SK-OV-3 ovarian
PC-3 prostate = system: PC-3 prostate
OVCAR-4 ovarian = system: OVCAR-4 ovarian
RPMI-8226 leukemia = system: RPMI-8226 leukemia
786-0 renal = system: 786-0 renal
HT29 colon = system: HT29 colon
LOX IMVI melanoma = system: LOX IMVI melanoma
SF-539 CNS = system: SF-539 CNS
MOLT-4 leukemia = system: MOLT-4 leukemia
SK-MEL-5 melanoma = system: SK-MEL-5 melanoma
MCF7 breast = system: MCF7 breast
MDA-MB-231 breast = system: MDA-MB-231 breast
NCI-H226 lung = system: NCI-H226 lung
CAKI-1 renal = system: CAKI-1 renal
SNB-19 CNS = system: SNB-19 CNS
OVCAR-5 ovarian = system: OVCAR-5 ovarian
BT-549 breast = system: BT-549 breast
KM12 colon = system: KM12 colon
NCI-H23 lung = system: NCI-H23 lung
UACC-62 melanoma = system: UACC-62 melanoma
T-47D breast = system: T-47D breast
CCRF-CEM leukemia = system: CCRF-CEM leukemia
COLO 205 colon = system: COLO 205 colon
HL-60(TB) leukemia = system: HL-60(TB) leukemia
HCT-15 colon = system: HCT-15 colon
U251 CNS = system: U251 CNS
SK-MEL-28 melanoma = system: SK-MEL-28 melanoma
SF-295 CNS = system: SF-295 CNS
TK-10 renal = system: TK-10 renal
HS 578T breast = system: HS 578T breast
SK-MEL-2 melanoma = system: SK-MEL-2 melanoma
ACHN renal = system: ACHN renal
SR leukemia = system: SR leukemia
NCI-H322M lung = system: NCI-H322M lung
OVCAR-3 ovarian = system: OVCAR-3 ovarian
HCT-116 colon = system: HCT-116 colon
UACC-257 melanoma = system: UACC-257 melanoma
EKVX NSCLC = system: EKVX NSCLC
SNB-75 CNS = system: SNB-75 CNS
A498 renal = system: A498 renal
OVCAR-8 ovarian = system: OVCAR-8 ovarian
MALME-3M melanoma = system: MALME-3M melanoma
HOP-92 NSCLC = system: HOP-92 NSCLC
NCI/ADR-RES ovarian = system: NCI/ADR-RES ovarian
MDA-N = system: MDA-N
NCI-H460 lung = system: NCI-H460 lung
NCI-H522 lung = system: NCI-H522 lung
RXF 393 renal = system: RXF 393 renal
SN12C renal = system: SN12C renal
HCC-2998 colon = system: HCC-2998 colon
DU-145 prostate = system: DU-145 prostate
HOP-62 NSCLC = system: HOP-62 NSCLC
K-562 leukemia = system: K-562 leukemia
SF-268 CNS = system: SF-268 CNS
M14 melanoma = system: M14 melanoma
MDA-MB-435 = system: MDA-MB-435
A549 NSCLC = system: A549 NSCLC

Nc1ccc([As](=O)(O)O)c(O)c1
GI50 (SW-620 colon): > 100 µM | TGI (SW-620 colon): > 100 µM | GI50 (UO-31 renal): > 100 µM | TGI (UO-31 renal): > 100 µM | GI50 (IGROV1 ovarian): > 100 µM | TGI (IGROV1 ovarian): > 100 µM | GI50 (SK-OV-3 ovarian): > 100 µM | TGI (SK-OV-3 ovarian): > 100 µM | GI50 (PC-3 prostate): > 100 µM | TGI (PC-3 prostate): > 100 µM | GI50 (OVCAR-4 ovarian): > 100 µM | TGI (OVCAR-4 ovarian): > 100 µM | GI50 (RPMI-8226 leukemia): > 100 µM | TGI (RPMI-8226 leukemia): > 100 µM | GI50 (786-0 renal): > 100 µM | TGI (786-0 renal): > 100 µM | GI50 (HT29 colon): > 100 µM | TGI (HT29 colon): > 100 µM | GI50 (LOX IMVI melanoma): > 100 µM | TGI (LOX IMVI melanoma): > 100 µM | GI50 (SF-539 CNS): > 100 µM | TGI (SF-539 CNS): > 100 µM | GI50 (MOLT-4 leukemia): > 100 µM | TGI (MOLT-4 leukemia): > 100 µM | GI50 (SK-MEL-5 melanoma): > 100 µM | TGI (SK-MEL-5 melanoma): > 100 µM | GI50 (MCF7 breast): > 100 µM | TGI (MCF7 breast): > 100 µM | GI50 (MDA-MB-231 breast): > 100 µM | TGI (MDA-MB-231 breast): > 100 µM | GI50 (NCI-H226 lung): > 100 µM | TGI (NCI-H226 lung): > 100 µM | GI50 (CAKI-1 renal): > 100 µM | TGI (CAKI-1 renal): > 100 µM | GI50 (SNB-19 CNS): > 100 µM | TGI (SNB-19 CNS): > 100 µM | GI50 (OVCAR-5 ovarian): > 100 µM | TGI (OVCAR-5 ovarian): > 100 µM | GI50 (BT-549 breast): > 100 µM | TGI (BT-549 breast): > 100 µM | GI50 (KM12 colon): > 100 µM | TGI (KM12 colon): > 100 µM | GI50 (NCI-H23 lung): > 100 µM | TGI (NCI-H23 lung): > 100 µM | GI50 (UACC-62 melanoma): > 100 µM | TGI (UACC-62 melanoma): > 100 µM | GI50 (T-47D breast): > 100 µM | TGI (T-47D breast): > 100 µM | GI50 (CCRF-CEM leukemia): > 100 µM | TGI (CCRF-CEM leukemia): > 100 µM | GI50 (COLO 205 colon): > 100 µM | TGI (COLO 205 colon): > 100 µM | GI50 (HL-60(TB) leukemia): > 100 µM | TGI (HL-60(TB) leukemia): > 100 µM | GI50 (HCT-15 colon): > 100 µM | TGI (HCT-15 colon): > 100 µM | GI50 (U251 CNS): > 100 µM | TGI (U251 CNS): > 100 µM | GI50 (SK-MEL-28 melanoma): > 100 µM | TGI (SK-MEL-28 melanoma): > 100 µM | GI50 (SF-295 CNS): > 100 µM | TGI (SF-295 CNS): > 100 µM | GI50 (TK-10 renal): > 100 µM | TGI (TK-10 renal): > 100 µM | GI50 (HS 578T breast): > 100 µM | TGI (HS 578T breast): > 100 µM | GI50 (SK-MEL-2 melanoma): > 100 µM | TGI (SK-MEL-2 melanoma): > 100 µM | GI50 (ACHN renal): > 100 µM | TGI (ACHN renal): > 100 µM | GI50 (SR leukemia): > 100 µM | TGI (SR leukemia): > 100 µM | GI50 (NCI-H322M lung): > 100 µM | TGI (NCI-H322M lung): > 100 µM | GI50 (OVCAR-3 ovarian): > 100 µM | TGI (OVCAR-3 ovarian): > 100 µM | GI50 (HCT-116 colon): > 100 µM | TGI (HCT-116 colon): > 100 µM | GI50 (UACC-257 melanoma): > 100 µM | TGI (UACC-257 melanoma): > 100 µM | GI50 (EKVX NSCLC): > 100 µM | TGI (EKVX NSCLC): > 100 µM | GI50 (SNB-75 CNS): > 100 µM | TGI (SNB-75 CNS): > 100 µM | GI50 (A498 renal): > 100 µM | TGI (A498 renal): > 100 µM | GI50 (OVCAR-8 ovarian): > 100 µM | TGI (OVCAR-8 ovarian): > 100 µM | GI50 (MALME-3M melanoma): > 100 µM | TGI (MALME-3M melanoma): > 100 µM | GI50 (HOP-92 NSCLC): > 100 µM | TGI (HOP-92 NSCLC): > 100 µM | GI50 (NCI/ADR-RES ovarian): > 100 µM | TGI (NCI/ADR-RES ovarian): > 100 µM | GI50 (MDA-N): > 100 µM | TGI (MDA-N): > 100 µM | GI50 (NCI-H460 lung): > 100 µM | TGI (NCI-H460 lung): > 100 µM | GI50 (NCI-H522 lung): > 100 µM | TGI (NCI-H522 lung): > 100 µM | GI50 (RXF 393 renal): > 100 µM | TGI (RXF 393 renal): > 100 µM | GI50 (SN12C renal): > 100 µM | TGI (SN12C renal): > 100 µM | GI50 (HCC-2998 colon): > 100 µM | TGI (HCC-2998 colon): > 100 µM | GI50 (DU-145 prostate): > 100 µM | TGI (DU-145 prostate): > 100 µM | GI50 (HOP-62 NSCLC): > 100 µM | TGI (HOP-62 NSCLC): > 100 µM | GI50 (K-562 leukemia): > 100 µM | TGI (K-562 leukemia): > 100 µM | GI50 (SF-268 CNS): > 100 µM | TGI (SF-268 CNS): > 100 µM | GI50 (M14 melanoma): > 100 µM | TGI (M14 melanoma): > 100 µM | GI50 (MDA-MB-435): > 100 µM | TGI (MDA-MB-435): > 100 µM | GI50 (A549 NSCLC): > 100 µM | TGI (A549 NSCLC): > 100 µM
